# Laboratory results from PMC8796707 (ACS chemical biology, 2020).
# Legend:
# dK (dL5(E52K)) = assay: Fluorescence quantum yield of dye/FAP complex; type: biochemical; settings: relative to MG-2p/dL5; 2, 1, 0.75, 0.5 μM dye with 10× FAP
# [1] = test system: HEK293 cells expressing NLS-dL5**; assay: Cell permeability testing: labeling of nuclear localized FAP; type: cell-based
# dL5** = settings: relative to MG-2p/dL5; 2, 1, 0.75, 0.5 μM dye with 10× FAP
# [2] = test system: HEK293 cells expressing dL5**-TM; settings: flow cytometry, 100 nM dye, normalized to MG-nBu
substance,measurement,setting,value
MG-PEG3500-HexCl [DAPA],"quantum yield, Φf, dK",dK (dL5(E52K)),0.05
same,labeling of nuclear / intracellular FAP (microscopy),"[1]; 500 nM dye, 15 min, NLS-dL5** HEK293 cells",cannot label intracellular FAP
same,cell permeant,[1]; HEK293 cells,effectively cell impermeant and no
same,"quantum yield, Φf, dL5**",dL5**,0.11
same,dL5**-TM labeling fluorescence relative to MG-nBu,[2],40%
